{
  "sequences": {"note": "Amino acid sequences for entries named in this document (tags omitted).", "UniProt Q99685, whole entry": "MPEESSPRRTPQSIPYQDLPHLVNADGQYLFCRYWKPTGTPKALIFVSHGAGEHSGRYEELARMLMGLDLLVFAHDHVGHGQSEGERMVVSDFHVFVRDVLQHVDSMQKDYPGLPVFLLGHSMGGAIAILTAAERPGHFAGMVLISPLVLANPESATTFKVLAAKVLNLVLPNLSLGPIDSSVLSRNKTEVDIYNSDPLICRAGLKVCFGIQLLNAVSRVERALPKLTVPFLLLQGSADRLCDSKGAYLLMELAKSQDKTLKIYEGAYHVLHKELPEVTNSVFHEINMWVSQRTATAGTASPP"},
  "source": "patent US11802133B2",
  "about": "“Heterocyclic compounds as monoacylglycerol lipase inhibitors” (Hoffmann-La Roche Inc., priority 2018, dated 2023)",
  "target": "MAGL (recombinant wild-type) (Homo sapiens (Human), UniProt Q99685)",
  "test": "4-NPA assay: MAGL inhibitory activity by hydrolysis of 4-nitrophenylacetate (absorbance at 405 nm)",
  "conditions": "read-out: IC50 MAGL; measured in 4-NPA assay (footnote [a]); 1 nM MAGL, 300 μM 4-nitrophenylacetate",
  "data": [
    {"smiles": "CC(C)(C)c1coc(CC2CCN(C(=O)N3CC[C@H]4OCC(=O)N[C@H]4C3)CC2)n1", "values": [
      {"measurement": "IC50", "value": 5.7, "unit": "µM"}
    ]}
  ]
}
